Source: article PMC11904993, “Humanized Candida and NanoBiT Assays Expedite Discovery of Bdf1 Bromodomain Inhibitors With Antifungal Potential” (Advanced Science, 2025)
Values joined by “and” are separate entries in the source; they are usually repeats but may differ in a detail not shown here. Identical values can stand only once. Like-named read-outs stand apart in the source and are kept apart here.

Chains of the proteins cited; added tags and fusions are not shown.
CgBdf1 BD1 (Candida glabrata, UniProt Q6FWV7), UniProt Q6FWV7, entry or part of it: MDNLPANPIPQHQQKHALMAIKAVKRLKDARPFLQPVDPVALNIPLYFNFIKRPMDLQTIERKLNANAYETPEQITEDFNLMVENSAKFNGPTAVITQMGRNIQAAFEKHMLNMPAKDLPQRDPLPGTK
CgBdf1 BD2 (Candida glabrata, UniProt Q6FWV7), UniProt Q6FWV7, entry or part of it: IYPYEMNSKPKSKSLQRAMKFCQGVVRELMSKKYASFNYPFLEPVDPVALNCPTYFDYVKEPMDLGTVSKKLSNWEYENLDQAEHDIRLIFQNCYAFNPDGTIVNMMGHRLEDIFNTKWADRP

Experiments:
CgBdf1 BD1 = CgBdf1 BD1 (Candida glabrata, UniProt Q6FWV7); assay: HTRF assay, inhibition of H4ac4 peptide binding; set-up: species or system C. glabrata; conditions: CgBD1, replicate experiments
CgBdf1 BD2 = CgBdf1 BD2 (Candida glabrata, UniProt Q6FWV7); format: binding, C. glabrata; conditions: CgBD2, replicate experiments

I-BET151
HTRF signal relative to no-compound control (Figure S4A raw data) (CgBdf1 BD1; Conc 2.10 nM): 93.14 and 84.00 and 89.21 | HTRF signal relative to no-compound control (Figure S4A raw data) (CgBdf1 BD1; Conc 13.11 nM): 94.62 and 107.66 and 86.70 | HTRF signal relative to no-compound control (Figure S4A raw data) (CgBdf1 BD1; Conc 32.77 nM): 92.12 and 91.61 and 103.42 | HTRF signal relative to no-compound control (Figure S4A raw data) (CgBdf1 BD1; Conc 81.92 nM): 95.66 and 146.10 and 95.63 | HTRF signal relative to no-compound control (Figure S4A raw data) (CgBdf1 BD1; Conc 204.8 nM): 89.54 and 82.34 and 87.03 | HTRF signal relative to no-compound control (Figure S4A raw data) (CgBdf1 BD1; Conc 512 nM): 80.84 and 85.95 and 68.82 | HTRF signal relative to no-compound control (Figure S4A raw data) (CgBdf1 BD1; Conc 1280 nM): 54.18 and 66.91 and 59.99 | HTRF signal relative to no-compound control (Figure S4A raw data) (CgBdf1 BD1; Conc 3200 nM): 31.81 and 43.33 and 38.44 | HTRF signal relative to no-compound control (Figure S4A raw data) (CgBdf1 BD1; Conc 8000 nM): 12.77 and 19.19 and 12.15 | HTRF signal relative to no-compound control (Figure S4A raw data) (CgBdf1 BD1; Conc 20000 nM): 17.74 and 10.62 and 8.74 | HTRF signal relative to no-compound control (Figure S4A raw data) (CgBdf1 BD2; Conc 2.10 nM): 91.90 and 111.23 and 90.11 | HTRF signal relative to no-compound control (Figure S4A raw data) (CgBdf1 BD2; Conc 13.11 nM): 75.25 and 95.57 and 101.57 | HTRF signal relative to no-compound control (Figure S4A raw data) (CgBdf1 BD2; Conc 32.77 nM): 87.81 and 96.57 and 125.47 | HTRF signal relative to no-compound control (Figure S4A raw data) (CgBdf1 BD2; Conc 81.92 nM): 90.53 and 89.01 and 91.69 | HTRF signal relative to no-compound control (Figure S4A raw data) (CgBdf1 BD2; Conc 204.8 nM): 70.96 and 74.26 and 73.64 | HTRF signal relative to no-compound control (Figure S4A raw data) (CgBdf1 BD2; Conc 512 nM): 48.37 and 68.63 and 54.62 | HTRF signal relative to no-compound control (Figure S4A raw data) (CgBdf1 BD2; Conc 1280 nM): 18.91 and 29.96 and 36.91 | HTRF signal relative to no-compound control (Figure S4A raw data) (CgBdf1 BD2; Conc 3200 nM): 11.43 and 17.11 and 16.90 | HTRF signal relative to no-compound control (Figure S4A raw data) (CgBdf1 BD2; Conc 8000 nM): 4.83 and 15.36 and 17.34 | HTRF signal relative to no-compound control (Figure S4A raw data) (CgBdf1 BD2; Conc 20000 nM): 4.70 and 22.26 and 22.30
